In patent US10821151B2, “Compositions and methods for treating cancer and persistent viral infections” (SUSAVION BIOSCIENCES, INC., priority 2015, dated 2020):

Tested on: immune cells in the peritoneal cavity
Experiment: peritoneal immune cell populations by flow cytometry after subcutaneous injection
Conditions: 1 nanomole per gram subcutaneously on day 0, 2 and 4; peritoneal lavage

For [NQHTPRGGGS]4K3-NH2 [SV6D], which “populations of DCs, NK cells, CD3+, CD4+ and CD8+ T cells, and B cells, including CD69+” value is on record?
Its value is “increased several-fold”.
